E-selectin induc – E-selectin induction on HUVECs; P16581; AID 686992; HUVEC E-selectin immunofluorescence imaging; normalized: neutral wells 0, TNF-alpha wells 100; hit rate 0.37% among 260,000; activation, % at 7.58 µM;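 active means mean E-selectin-positive cell signal at least 10% of the positive control, reached in at least 60% of replicates, without over 20% cell loss; inconclusive means no rule given, readout overlaps actives, possibly toxicity-flagged; inactive means the rest, including those meeting only one limit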
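assay system = HUVEC, human umbilical vein endothelial cells | input = 3,000 HUVEC seeded per well | medium = EGM-2 growth medium on 0.1% gelatin-coated wells | dosing = one compound dose added by pin transfer | signal = immunofluorescence imaging | read-out basis = % PE-positive cells | control set = TNF-alpha, DMSO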
Yeast UUG start – modulators of yeast start codon fidelity, primary screen, whole organism, S. cerevisiae, single point, plate reader. S. cerevisiae UUG-firefly luciferase reporter, luminescence/redox ratio. activity score, % at 18.7 µM. hit rate 0.13% among 350,000;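 active = replicate mean at a twofold rise or more, about +100% in these data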;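 also: firefly luciferase made from a UUG start codon reports start codon fidelity; reporter light over untreated wells divided by growth signal over untreated wells; some hits fall short of that in this replicate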
Cneo AK release – Cryptococcus neoformans lysis via adenylate kinase release | C. neoformans lysis, adenylate kinase release luminescence, 4 h; normalised: neutral wells 0, clomiphene wells 100 | lysis activity, % at 15 µM | hit rate 0.2% among 360,000;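 active means mean lysis activity across replicates of at least 80%, whatever share of replicates individually reach that level; inactive means mean lysis activity below 80%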
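Signal: Adenylate kinase release luminescence | Assay system: Log-phase Cryptococcus neoformans yeast cells | Input: Cells at 5 × 10^6 per mL | Buffer or medium: Fresh YPD growth medium | Compound: Single dose | Schedule: Static 4 h at 37 °C with compound, 1 h detection | Controls: Clomiphene | Read-out: Luminescence rise reflecting yeast cell lysis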
DENV2 CPE rescue – protects cells from dengue virus 2 cytopathic effect; DENV2-infected cells, cytopathic effect rescue, plate reader; CPE inhibition, % at 9.99 µM; hit rate 1.7% among 350,000; in the data active means CPE inhibition above about 20%, passing the limit was not always enough; inconclusive means no clear call, values can overlap the other calls; tested in BHK-21 cells;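 further: 0% = median of neutral control wells and 100% = median of positive control wells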
* hit, by the source's call. In the library only some 1.8% were active in any assay of this set; here they are far more common.

How did O=C(C[C@@H]1CC[C@H](NC(=O)C2CCOCC2)[C@H](CO)O1)Nc1ccccc1 do in these assays?
E-selectin induc: 0; DENV2 CPE rescue: 16

How did Cc1ccccc1N(C(=O)c1ccco1)C(C(=O)NC1CCCC1)c1cccnc1 (centres undefined) do in these assays?
E-selectin induc: 0; Yeast UUG start: 5; Cneo AK release: 6; DENV2 CPE rescue: -1

Results for CCc1ccccc1N(C(=O)c1ccco1)C(C(=O)NC1CCCC1)c1cccnc1 (centres undefined) ?
Yeast UUG start: -15; Cneo AK release: 2; DENV2 CPE rescue: 54*

What do the screens show for `COc1ccc(Cl)cc1N(C(=O)c1ccco1)C(C(=O)NC1CCCC1)c1ccco1` (centres undefined)?
DENV2 CPE rescue: 75*

How did O=C(c1cccc(F)c1)N1CC[C@H]2[C@H](CO)Nc3ccc(-c4ccccc4)cc3[C@H]21 do in these assays?
E-selectin induc: 1; DENV2 CPE rescue: -4

What do the screens show for `O=C(CCNC(=O)C1CCN(S(=O)(=O)c2ccccc2)CC1)NCc1ccccn1`?
E-selectin induc: 0; Yeast UUG start: -14; Cneo AK release: -2; DENV2 CPE rescue: -1

How did COc1ccc(S(=O)(=O)N2CCC(C(=O)NCCC(=O)NCc3ccccn3)CC2)cc1 do in these assays?
E-selectin induc: 1; Yeast UUG start: -24; Cneo AK release: 0; DENV2 CPE rescue: 36*

Results for CCOc1ccc(S(=O)(=O)N2CCC(C(=O)NCc3cccnc3)CC2)cc1 ?
E-selectin induc: 41*; Yeast UUG start: -4; Cneo AK release: 0; DENV2 CPE rescue: -10

How did O=C(NC1CCCCC1)N1CC(=O)N2[C@H](C1)[C@H](c1ccc(/C=C/c3ccccc3)cc1)[C@@H]2CO do in these assays?
E-selectin induc: 0; DENV2 CPE rescue: -4

Results for O=C(Cc1cccc(NC(=O)C2CCCN(C(=O)C3CCCCC3)C2)c1)Nc1ccc(C(=O)N2CCOCC2)cc1 (centres undefined) ?
E-selectin induc: 0; Yeast UUG start: 1; Cneo AK release: -1; DENV2 CPE rescue: 24*

How did CC(C)(C)OC(=O)N(Cc1ccccc1)Cc1ccccc1OCc1ccc(NC(=O)C2CCC2)cc1 do in these assays?
E-selectin induc: 0; Yeast UUG start: -11; Cneo AK release: -1; DENV2 CPE rescue: 28*

Results for O=C(Cc1cccc(NC(=O)C2CCN(C(=O)C3CCCC3)CC2)c1)Nc1cccc(C(=O)N2CCCCC2)c1 ?
E-selectin induc: -2; Yeast UUG start: 26; Cneo AK release: -1; DENV2 CPE rescue: 43*

Results for O=C(Cc1ccc(NC(=O)C2CCCN(C(=O)C3CC3)C2)cc1)Nc1cccc(C(=O)N2CCCC2)c1 (centres undefined) ?
E-selectin induc: 0; Yeast UUG start: -14; Cneo AK release: -2; DENV2 CPE rescue: 62*

Results for COc1ccc(S(=O)(=O)N(C)C[C@@H]2Oc3ccc(NC(=O)C4CC4)cc3C(=O)N([C@H](C)CO)C[C@H]2C)cc1 ?
E-selectin induc: 0; Yeast UUG start: 26; Cneo AK release: 55; DENV2 CPE rescue: inconclusive

How did CN(Cc1ccccc1)C(=O)c1ccc(NC(=O)Cc2ccc(NC(=O)C3CCN(C(=O)C4CCC4)CC3)cc2)cc1 do in these assays?
E-selectin induc: 0; Yeast UUG start: -6; Cneo AK release: -3; DENV2 CPE rescue: 53*

Results for C/C=C/c1ccc([C@@H]2[C@@H](CO)N(C(C)=O)C23CN(C(=O)c2cnccn2)C3)cc1 ?
E-selectin induc: 0; DENV2 CPE rescue: -6

Results for OC(c1ccccc1)C(NCc1ccccc1)c1ccccc1 (centres undefined) ?
Yeast UUG start: -19; Cneo AK release: -1; DENV2 CPE rescue: 21*

What do the screens show for `CC(C)NC(=O)Nc1ccc2c(c1)CC(=O)N([C@H](C)CO)C[C@@H](C)[C@@H](CN(C)Cc1ccccc1)O2`?
E-selectin induc: 0; Yeast UUG start: 3; Cneo AK release: -2; DENV2 CPE rescue: 18

Results for Brc1ccc(OCc2nnc(SCC3CCCCC3)o2)cc1 ?
E-selectin induc: 0; Yeast UUG start: -22; Cneo AK release: 0; DENV2 CPE rescue: 29*

How did CCc1ccc(OCc2nnc(SCC(=O)NC3CCCCC3)o2)cc1 do in these assays?
Yeast UUG start: -4; Cneo AK release: -1; DENV2 CPE rescue: -6

How did COc1ccc(NC(=O)CSCC(=O)Nc2ccc(C)c(S(=O)(=O)N3CCCCCC3)c2)cc1 do in these assays?
E-selectin induc: 0; Yeast UUG start: 15; Cneo AK release: 0; DENV2 CPE rescue: inconclusive

How did COc1ccc(NC(=O)c2cc(S(=O)(=O)N3CCCCC3)c[nH]2)cc1 do in these assays?
E-selectin induc: 111*; Yeast UUG start: 7; Cneo AK release: -5; DENV2 CPE rescue: 4

How did COc1ccc(CC(=O)Nc2ccc(C)c(S(=O)(=O)N3CCCCCC3)c2)cc1 do in these assays?
E-selectin induc: 0; Yeast UUG start: -7; Cneo AK release: -2; DENV2 CPE rescue: 35*

What do the screens show for `CN1C(=O)c2cc(NC(=O)C3CCOCC3)ccc2OC[C@@H]2O[C@H](CC(=O)NCC3CCCCC3)CC[C@@H]21`?
E-selectin induc: 0; Cneo AK release: 0; DENV2 CPE rescue: 1

Results for CCCCSc1nc2c(cnn2-c2ccc(C)c(C)c2)c(=O)[nH]1 ?
E-selectin induc: 1; Yeast UUG start: -24; Cneo AK release: 2; DENV2 CPE rescue: 50*

How did CO[C@H]1CN(C)C(=O)c2ccc(NC(=O)C3CC3)cc2OC[C@@H](C)N(Cc2cccnc2)C[C@@H]1C do in these assays?
E-selectin induc: 0; Yeast UUG start: -16; Cneo AK release: 45; DENV2 CPE rescue: 2

What do the screens show for `Cc1cccc(S(=O)(=O)N2CC[C@@H]3[C@H](CO)Nc4ccc(-c5ccccc5F)cc4[C@@H]32)c1`?
E-selectin induc: 1; Yeast UUG start: -10; Cneo AK release: -5; DENV2 CPE rescue: -8

How did O=S(=O)(c1ccc(F)cc1)N1CC[C@H]2[C@H](CO)Nc3ccc(-c4ccccc4F)cc3[C@H]21 do in these assays?
E-selectin induc: -1; Yeast UUG start: -4; Cneo AK release: -5; DENV2 CPE rescue: 43*

What do the screens show for `O=S(=O)(c1ccccc1F)N1CC[C@@H]2[C@H](CO)Nc3ccc(-c4ccccc4F)cc3[C@@H]21`?
E-selectin induc: 0; Yeast UUG start: -1; Cneo AK release: 71; DENV2 CPE rescue: -25

How did Cc1ccccc1S(=O)(=O)N1CC[C@@H]2[C@@H](CO)Nc3ccc(-c4ccccc4F)cc3[C@@H]21 do in these assays?
E-selectin induc: -1; Yeast UUG start: -26; Cneo AK release: 3; DENV2 CPE rescue: 42*

Results for C/C=C/c1ccc2c(c1)[C@H]1[C@H](CCN1S(=O)(=O)c1ccccc1)[C@H](CO)N2 ?
E-selectin induc: 0; Yeast UUG start: -14; Cneo AK release: -2; DENV2 CPE rescue: -6

Results for C/C=C/c1ccc2c(c1)[C@H]1[C@H](CCN1S(=O)(=O)c1ccccc1F)[C@H](CO)N2 ?
E-selectin induc: 0; Yeast UUG start: -5; Cneo AK release: 8; DENV2 CPE rescue: 25*

What do the screens show for `Cc1cccc(S(=O)(=O)N2CC[C@@H]3[C@H]2c2cc(-c4ccccc4F)ccc2N[C@@H]3CO)c1`?
E-selectin induc: 1; Yeast UUG start: -1; Cneo AK release: -6; DENV2 CPE rescue: 40*

Three successive entries out of the list so far, for reference:
Results for C/C=C/c1ccc2c(c1)[C@H]1[C@H](CCN1S(=O)(=O)c1ccccc1)[C@H](CO)N2 ?
E-selectin induc: 0; Yeast UUG start: -14; Cneo AK release: -2; DENV2 CPE rescue: -6

Results for C/C=C/c1ccc2c(c1)[C@H]1[C@H](CCN1S(=O)(=O)c1ccccc1F)[C@H](CO)N2 ?
E-selectin induc: 0; Yeast UUG start: -5; Cneo AK release: 8; DENV2 CPE rescue: 25*

What do the screens show for `Cc1cccc(S(=O)(=O)N2CC[C@@H]3[C@H]2c2cc(-c4ccccc4F)ccc2N[C@@H]3CO)c1`?
E-selectin induc: 1; Yeast UUG start: -1; Cneo AK release: -6; DENV2 CPE rescue: 40*

Assay outcomes deposited in PubChem by Broad Institute.
